Data set [1] deals with S. pseudintermedius strains. Type of data set: cell-based, Staphylococcus pseudintermedius. Particulars: 24 h. Here is the method: The broth microdilution technique was used to determine the minimum inhibitory concentrations (MIC) of peptides and antibiotics in MHB in accordance with the Clinical and Laboratory Standards Institute (CLSI) guidelines. Peptides were dissolved in sterile distilled water containing 0.02% acetic acid. MIC assays were carried out with an initial bacterial inoculum of 5×10^5 colony forming unit (CFU/ml). Peptides and antibiotics were added to Polystyrene 96 well plates (CytoOne, CC7672-7596) at desired concentrations and plates were incubated for 24 hr at 37°C. MIC was defined as the lowest concentration of peptide which inhibited the visible growth of bacteria. MIC was done in triplicates and the highest value was reported.
Untreated cells were used as a negative control.

In data set [2] the test system is mammalian cells (J774A.1 and HaCat). As to the kind of experiment: Cytotoxicity, MTS assay, statement for both cell lines. Particulars: 24 hours. Here is the method: Peptides were assayed at different concentrations against macrophage-like cell line (J774A.1) and human keratinocyte (HaCat) to determine the potential toxic effect in vitro. […] Untreated cells were used as a negative control. […] After incubation, the cells were washed three times with PBS and the media in each well were replaced with 100 µL of DMEM media and 20 µL of assay reagent, MTS 3-(4,5-dimethylthiazol-2-yl)-5-(3-carboxymethoxyphenyl)-2-(4-sulfophenyl)-2H-tetrazolium) (Promega, Madison, WI, USA). The cells were incubated further for 4 h at 37°C. Corrected absorbance readings (actual absorbance readings for each treatment subtracted from background absorbance) were taken using a kinetic ELISA microplate reader (Molecular Devices, Sunnyvale, CA, USA). Cell viability was expressed as percentage of absorbance in comparison to negative control, untreated cells.
Cytotoxicity data were subjected to statistical analysis using GraphPad Prism 6.0 (GraphPad Software, La Jolla, CA). Cytotoxicity data were analyzed using one-way ANOVA, with post hoc Tukey's multiple comparisons test. P-values of <0.01 were considered significant.
(Tetrazolium dyes change colour on reduction, which living cells bring about.)

Regarding `CC[C@H](C)[C@H](NC(=O)[C@H](CCCCN)NC(=O)[C@@H](NC(=O)[C@H](CCC(N)=O)NC(=O)[C@@H](N)CCCNC(=N)N)[C@@H](C)CC)C(=O)N[C@@H](Cc1c[nH]c2ccccc12)C(=O)N[C@@H](Cc1ccccc1)C(=O)N[C@@H](CCC(N)=O)C(=O)N[C@@H](CC(N)=O)C(=O)N[C@@H](CCCNC(=N)N)C(=O)N[C@@H](CCCNC(=N)N)C(=O)N[C@@H](CCSC)C(=O)N[C@@H](CCCCN)C(=O)N[C@@H](Cc1c[nH]c2ccccc12)C(=O)N[C@@H](CCCCN)C(=O)N[C@@H](CCCCN)C(=O)O` [Penetratin], the “GM MIC S. pseudintermedius” value in data set [1] was 8.76 µM. Moreover, the “concentration up to which not toxic to mammalian cells” value in data set [2] was “up to 256 µM”.

Source of the values: publication PMC4281220, “Antibacterial Activity of Novel Cationic Peptides against Clinical Isolates of Multi-Drug Resistant Staphylococcus pseudintermedius from Infected Dogs” (PLoS ONE, 2014).
